Sequences of proteins named here, by UniProt entry; tags and fusion partners are left off. Residues count along the entry.
UniProt P02769, 25-607: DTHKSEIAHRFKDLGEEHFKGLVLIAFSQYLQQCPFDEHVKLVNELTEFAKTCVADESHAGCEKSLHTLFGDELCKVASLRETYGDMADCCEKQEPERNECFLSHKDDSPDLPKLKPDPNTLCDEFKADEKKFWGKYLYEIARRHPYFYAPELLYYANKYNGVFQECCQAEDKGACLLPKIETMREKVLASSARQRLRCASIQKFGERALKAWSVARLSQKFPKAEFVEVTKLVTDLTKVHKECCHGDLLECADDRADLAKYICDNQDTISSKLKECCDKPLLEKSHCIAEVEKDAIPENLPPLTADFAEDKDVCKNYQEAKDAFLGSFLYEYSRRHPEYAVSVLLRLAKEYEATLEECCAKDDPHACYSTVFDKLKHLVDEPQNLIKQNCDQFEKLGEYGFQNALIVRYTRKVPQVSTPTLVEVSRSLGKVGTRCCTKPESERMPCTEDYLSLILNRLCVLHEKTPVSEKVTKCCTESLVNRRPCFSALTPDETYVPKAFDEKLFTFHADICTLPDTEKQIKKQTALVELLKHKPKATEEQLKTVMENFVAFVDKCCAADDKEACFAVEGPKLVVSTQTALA

In article PMC10508264, “Exploring the antioxidant, antimicrobial, cytotoxic and biothermodynamic properties of novel morpholine derivative bioactive Mn(II), Co(II) and Ni(II) complexes – combined experimental and theoretical measurements towards DNA/BSA/SARS-CoV-2 3CL^Pro” (RSC Medicinal Chemistry, 2023):

Target: BSA (Bos taurus, UniProt P02769)
Assay type: binding, bovine
Conditions: BSA band at 278 nm

| SMILES | Chromism (% H), hyperchromism |
| --- | --- |
| [Mn+2].[O-]c1ccccc1N=Cc1ccc(N2CCOCC2)cc1.[O-]c1ccccc1N=Cc1ccc(N2CCOCC2)cc1.c1ccc(-c2ccccn2)nc1 [(1)] | 57.41% |
| [Co+2].[O-]c1ccccc1N=Cc1ccc(N2CCOCC2)cc1.[O-]c1ccccc1N=Cc1ccc(N2CCOCC2)cc1.c1ccc(-c2ccccn2)nc1 [(2)] | 50.43% |
| [Ni+2].[O-]c1ccccc1N=Cc1ccc(N2CCOCC2)cc1.[O-]c1ccccc1N=Cc1ccc(N2CCOCC2)cc1.c1ccc(-c2ccccn2)nc1 [(3)] | 54.61% |
